## Yeast mating assay B: variants of the scFv Ab-14

All variants were tested on one target, the spike HR2 peptide PDVDLGDISGINAS (SARS-CoV-2).

The variants keep the light chain, the linker and the frameworks of Ab-14 (scFv order VH, a 15-residue (Gly4Ser)3 linker, VL).
VH: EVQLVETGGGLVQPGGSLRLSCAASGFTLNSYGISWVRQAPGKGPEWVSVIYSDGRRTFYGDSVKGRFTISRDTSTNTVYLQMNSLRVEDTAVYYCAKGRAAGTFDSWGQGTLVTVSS
VL: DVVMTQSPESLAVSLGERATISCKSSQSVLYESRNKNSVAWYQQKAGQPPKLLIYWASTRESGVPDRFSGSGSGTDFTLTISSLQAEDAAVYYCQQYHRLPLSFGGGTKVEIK

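Phage display of a naive human antibody library on the peptide gave the parent. This is the validation round: designs drawn from the data on random variants, tested in the same kind of assay. Group labels follow the data file (Ctrl: baseline library sampled from a position-specific scoring matrix, with some repeated check sequences; GP: Gaussian process model; GPLM: also part of the Gaussian process libraries; HC: hill climbing; Gen: genetic algorithm; Gibbs: Gibbs sampling; a sequence that several methods proposed may carry one label only). AlphaSeq pools MATa yeast showing the antibodies with MATalpha yeast showing the peptide. Binding brings cells together so that they mate, and sequencing counts the barcode pairs among the diploids. Read counts were normalised to the haploid input and turned into Kd by a linear fit to BCL2-family pairs of known affinity, for each replicate. Mating was done six times.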

Each variant's VH is given in full. This list holds designs with at most six substitutions. Values are apparent Kd, the geometric mean of the replicates that gave a signal; lower means stronger binding. "nd" means that the variant was in the library but no mating with the target was seen in any replicate; the authors take this as a sign of poor binding, and no number exists.

* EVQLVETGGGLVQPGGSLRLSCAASGFWLNEYGISWVRQAPGKGPEWVSVIYSDGKRTFYGDSVKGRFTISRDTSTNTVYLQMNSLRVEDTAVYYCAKGRTAGTFDSWGQGTLVTVSS [GP_Gen] = 95 nM (3 of 6 replicates; controls 0 of 18)
* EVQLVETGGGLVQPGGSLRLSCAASGFTLNDYGISWVRQAPGKGPEWVSVIYSDGRRTFYIDSVKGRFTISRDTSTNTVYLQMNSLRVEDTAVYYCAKGRQAGTFISWGQGTLVTVSS [GP_HC] = nd (0 of 6 replicates; controls 0 of 18)
* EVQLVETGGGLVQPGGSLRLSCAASGFDLNSYGISWVRQAPGKGPEWVSVIYSDGRRTFYGDSVKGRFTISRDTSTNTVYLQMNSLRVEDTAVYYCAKGHAAGTFNSWGQGTLVTVSS [GP_HC] = 32 nM (4 of 6 replicates; controls 0 of 18)
* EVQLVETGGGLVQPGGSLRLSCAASGFYLNSYGISWVRQAPGKGPEWVSVIYSDGRRTFYHDSVKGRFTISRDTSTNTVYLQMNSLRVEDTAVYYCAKGQLAGTFDSWGQGTLVTVSS [GPLM_HC] = 15 nM (1 of 6 replicates; controls 1 of 18)
* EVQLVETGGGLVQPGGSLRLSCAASGFTLNDYGISWVRQAPGKGPEWVSVIYSDGRRTFYTDSVKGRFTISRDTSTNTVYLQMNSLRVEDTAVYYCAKGRAAGTFDSWGQGTLVTVSS [Ctrl+GPLM_Gen] = 1.7 nM (9 of 12 replicates; controls 0 of 36)
* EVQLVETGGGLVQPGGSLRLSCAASGFGLNEYGISWVRQAPGKGPEWVSVIYSDGRRTFYTDSVKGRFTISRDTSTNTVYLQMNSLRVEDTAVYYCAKGREAGTFDVWGQGTLVTVSS [GP_HC] = 320 pM (6 of 6 replicates; controls 0 of 18)
* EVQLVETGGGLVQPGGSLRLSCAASGFTLESYGISWVRQAPGKGPEWVSVIYSDGKRTFYGDSVKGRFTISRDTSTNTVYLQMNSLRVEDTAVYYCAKGRVAGTFDSWGQGTLVTVSS [GPLM_Gen] = 4.7 nM (6 of 6 replicates; controls 0 of 18)
* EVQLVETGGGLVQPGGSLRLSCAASGFTLNEYGISWVRQAPGKGPEWVSVIYSDGRRTFYGDSVKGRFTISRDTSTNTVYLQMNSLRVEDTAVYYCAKGRAAGSFTTWGQGTLVTVSS [GP_HC] = nd (0 of 6 replicates; controls 0 of 18)
* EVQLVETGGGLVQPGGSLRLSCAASGFTLNSYGISWVRQAPGKGPEWVSVIYSDGRRTSYGDSVKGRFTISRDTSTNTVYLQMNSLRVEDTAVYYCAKGRAAGTFESWGQGTLVTVSS [Ctrl] = nd (0 of 6 replicates; controls 0 of 18)
* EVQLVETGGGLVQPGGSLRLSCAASGETLNDYGISWVRQAPGKGPEWVSVIYSDGRRTEYADSVKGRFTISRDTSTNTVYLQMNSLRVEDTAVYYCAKGSAAGTFDSWGQGTLVTVSS [Ctrl] = nd (0 of 6 replicates; controls 1 of 18)
* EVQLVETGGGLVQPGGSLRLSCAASGFDLNSYGISWVRQAPGKGPEWVSVIYSDGKRTFYADSVKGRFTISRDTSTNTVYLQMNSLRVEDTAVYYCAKGREAGTFDSWGQGTLVTVSS [GP_Gen] = 520 pM (6 of 6 replicates; controls 1 of 18)
* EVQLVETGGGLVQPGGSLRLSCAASGTTLNSYGISWVRQAPGKGPEWVSVIYSDGLRTFYNDSVKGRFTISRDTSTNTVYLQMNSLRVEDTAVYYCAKGRAAKTFEVWGQGTLVTVSS [Ctrl] = 70 nM (1 of 6 replicates; controls 0 of 18)
* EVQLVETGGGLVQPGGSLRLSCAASGFDLNSYGISWVRQAPGKGPEWVSVIYSDGWRTFYKDSVKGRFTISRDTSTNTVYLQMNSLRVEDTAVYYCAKGRTAGTFDSWGQGTLVTVSS [GP_Gibbs] = 5.5 nM (5 of 6 replicates; controls 0 of 18)
* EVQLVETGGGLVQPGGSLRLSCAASGFELNSYGISWVRQAPGKGPEWVSVIYSDGRRTFYGDSVKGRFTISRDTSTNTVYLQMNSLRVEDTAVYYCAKGKTAGTFDDWGQGTLVTVSS [GP_Gen] = 6.1 nM (6 of 6 replicates; controls 0 of 18)
* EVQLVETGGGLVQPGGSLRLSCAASGVTLNSYGISWVRQAPGKGPEWVSVIYSDGRRTFYGDSVKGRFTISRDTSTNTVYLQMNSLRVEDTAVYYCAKCRAAGVFFSWGQGTLVTVSS [Ctrl] = nd (0 of 6 replicates; controls 0 of 18)
* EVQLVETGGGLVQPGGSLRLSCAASGFDLNSYGISWVRQAPGKGPEWVSVIYSDGRRTFYGDSVKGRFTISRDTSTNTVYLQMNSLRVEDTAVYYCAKGRAAGFDDSWGQGTLVTVSS [Ctrl] = 96 nM (1 of 6 replicates; controls 0 of 18)
* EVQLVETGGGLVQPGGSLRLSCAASGFNLNSYGISWVRQAPGKGPEWVSVIYSDGRRTFYGDPVKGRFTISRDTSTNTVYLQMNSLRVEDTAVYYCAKGRLAGTFDSWGQGTLVTVSS [GP_Gibbs] = 520 nM (4 of 6 replicates; controls 1 of 18)
* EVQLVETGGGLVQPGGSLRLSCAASGYTLNSHGISWVRQAPGKGPEWVSVIYSDGRRTFYGDSVKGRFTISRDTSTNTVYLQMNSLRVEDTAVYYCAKGRHQGTFDSWGQGTLVTVSS [Ctrl] = nd (0 of 6 replicates; controls 0 of 18)
* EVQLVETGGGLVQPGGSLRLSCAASGFWLNSYGISWVRQAPGKGPEWVSVIYSDGRRTFYADSVKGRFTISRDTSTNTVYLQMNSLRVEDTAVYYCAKGRVAGTFDSWGQGTLVTVSS [GPLM_Gen] = 3.3 nM (3 of 6 replicates; controls 0 of 18)
* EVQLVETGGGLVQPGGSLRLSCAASGFELNEYGISWVRQAPGKGPEWVSVIYSDGRRTFYGDDVKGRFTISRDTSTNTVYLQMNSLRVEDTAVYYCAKGRAAGTFDSWGQGTLVTVSS [Ctrl] = 4.1 nM (6 of 6 replicates; controls 0 of 18)
* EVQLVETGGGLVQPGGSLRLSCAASGFELNSYGISWVRQAPGKGPEWVSVIYADGRRTFYGDSVKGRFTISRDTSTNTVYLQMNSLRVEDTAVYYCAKGRVAGTFDSWGQGTLVTVSS [GP_Gen] = 2.3 nM (6 of 6 replicates; controls 0 of 18)
* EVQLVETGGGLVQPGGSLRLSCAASGFELNSYGISWVRQAPGKGPEWVSVIYSDGRRTFYGDSVKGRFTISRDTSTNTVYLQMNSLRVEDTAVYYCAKGVTAGTFDVWGQGTLVTVSS [GP_Gibbs] = 13 nM (6 of 6 replicates; controls 1 of 18)
* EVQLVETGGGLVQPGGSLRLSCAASGFTLNSYGISWVRQAPGKGPEWVSVIYSDGRRTFYADDVKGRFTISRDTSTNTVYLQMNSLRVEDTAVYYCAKGKAAGTFDSWGQGTLVTVSS [GPLM_Gibbs] = 3.5 nM (6 of 6 replicates; controls 0 of 18)
* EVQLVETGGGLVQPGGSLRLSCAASGFHLNSYGISWVRQAPGKGPEWVSVIYSDGRRTFYVDSVKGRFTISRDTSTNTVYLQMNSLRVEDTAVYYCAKGEAAGTFDTWGQGTLVTVSS [GP_Gibbs] = 9.4 nM (3 of 6 replicates; controls 0 of 18)
* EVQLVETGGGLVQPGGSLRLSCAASGFTLNEYGISWVRQAPGKGPEWVSVIYSDGRRTFYGDSVKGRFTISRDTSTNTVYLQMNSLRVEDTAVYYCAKGRAAGYFDSWGQGTLVTVSS [Ctrl] = nd (0 of 6 replicates; controls 2 of 18)
* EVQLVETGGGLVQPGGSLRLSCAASGFHLNSYGISWVRQAPGKGPEWVSVIYSDGRRTFYGDSVKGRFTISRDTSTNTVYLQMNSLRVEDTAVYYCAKGNEAGTFDTWGQGTLVTVSS [GP_Gibbs] = 1.0 nM (6 of 6 replicates; controls 0 of 18)

A selection of 2 entries from above:

{"VH": "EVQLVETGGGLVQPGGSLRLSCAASGFTLNSYGISWVRQAPGKGPEWVSVIYSDGRRTSYGDSVKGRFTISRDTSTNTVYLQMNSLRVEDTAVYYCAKGRAAGTFESWGQGTLVTVSS", "group": "Ctrl", "apparent Kd": "nd", "detected": "0 of 6", "control signals": "0 of 18"}
{"VH": "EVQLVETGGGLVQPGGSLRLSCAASGFDLNSYGISWVRQAPGKGPEWVSVIYSDGRRTFYGDSVKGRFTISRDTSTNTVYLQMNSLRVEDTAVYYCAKGHAAGTFNSWGQGTLVTVSS", "group": "GP_HC", "apparent Kd": "32 nM", "detected": "4 of 6", "control signals": "0 of 18"}

A sequence that the file lists under several names has all its replicates pooled. The authors' rule: three or more of the six replicates give a measured affinity, fewer mean a poor binder. The range of this assay differs from that of the first round, and the authors advise against merging the two. As a blank, each scFv also met three strains without target: over all heavy chain designs, 1% of these pairings were detected, typically at 120 nM and seldom below 7.0 nM. For each scFv, signals with the empty controls are counted beside the result. The parent sequence was in this pool as ten entries: three were never detected, three once, and four in most replicates, with averages from 2.2 nM to 240 nM.

Reference: Li et al. 2023, doi:10.1038/s41467-023-39022-2. File: FLAb, binding data.